Outcome data for twelve molecules are collected here from PubChem BioAssay (EPA / NIEHS).

The chains behind the UniProt entries cited, without tags or fusion partners. Where a name states a change or a piece, a line headed by the entry shows the natural chain unless it says otherwise.
UniProt P41235: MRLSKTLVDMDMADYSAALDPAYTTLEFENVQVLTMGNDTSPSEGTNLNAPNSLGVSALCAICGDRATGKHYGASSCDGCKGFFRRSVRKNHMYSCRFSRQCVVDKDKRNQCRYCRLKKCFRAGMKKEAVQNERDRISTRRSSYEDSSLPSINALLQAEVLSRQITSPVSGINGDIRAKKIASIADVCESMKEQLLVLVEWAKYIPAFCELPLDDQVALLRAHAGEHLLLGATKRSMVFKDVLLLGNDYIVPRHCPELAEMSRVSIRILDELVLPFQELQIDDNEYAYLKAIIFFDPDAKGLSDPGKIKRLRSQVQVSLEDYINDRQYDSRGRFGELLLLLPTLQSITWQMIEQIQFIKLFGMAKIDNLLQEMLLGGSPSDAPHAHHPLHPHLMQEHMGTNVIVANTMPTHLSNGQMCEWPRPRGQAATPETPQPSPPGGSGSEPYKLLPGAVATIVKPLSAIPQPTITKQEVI

Only a part is listed here, and it is no random draw. Results filed as inconclusive are left out. The source made the active and inactive calls. How the source made its calls: active means hit-call score of the fitted dose curve at least 0.9, where 1 is the maximum; inconclusive means response in the unintended direction; inactive means score below 0.9.

The assay deals with Hepatocyte nuclear factor 4-alpha (Homo sapiens) (UniProt P41235). The assay is described as follows: ATG_HNF4a_TRANS: Attagene TRANS-FACTORIAL HepG2 Assay for human Hepatocyte Nuclear Factor 4 alpha (HNF4a) (AID 2282982). The note with it: HepG2 HNF4a transactivation reporter, mRNA readout. As to the method:
ATG_TRANS is a cell-based, multiplexed-readout assay that uses HepG2, a human liver cell line, with measurements taken at 24 hours after chemical dosing in a 24-well plate.ATG_HNF4a_TRANS is one of 30 assay component(s) measured or calculated from the ATG_TRANS assay. It is designed to make measurements of mRNA induction, a form of inducible reporter, as detected with fluorescence intensity signals by Reverse transcription polymerase chain reaction (RT-PCR) and Capillary electrophoresis technology.Data from the assay component ATG_HNF4a_TRANS was analyzed into 1 assay endpoint. This assay endpoint, ATG_HNF4a_TRANS, was analyzed in the positive analysis fitting direction relative to DMSO as the negative control and baseline of activity. Using a type of inducible reporter, measures of mRNA for gain-of-signal activity can be used to understand the reporter gene at the transcription factor-level as they relate to the gene HNF4A. Furthermore, this assay endpoint can be referred to as a primary readout, because this assay has produced multiple assay endpoints where this one serves a reporter gene function. To generalize the intended target to other relatable targets, this assay endpoint is annotated to the nuclear receptor intended target family, where the subfamily is orphan.
Human liver HepG2 cells are transiently transfected with multiple reporter transcription units (MRTUs) in 6-well plates using FuGene 6 reagent (Roche; 3 ml FuGene/1 mg DNA). The MRTU constructs are regulated by a cis-regulating element (promoter). […] A major difference between the CIS and TRANS system is that in CIS activities of endogenous TFs are measured, whereas the TRANS assay evaluates changes in activities of exogenous, chimeric NR-Gal4 proteins. […] At the end of 24 hour incubation, total RNA was isolated using TriZol reagent (Invitrogen). The isolated RNA is then reverse-transcribed using oligo(dT) primer and Mo-MLV reverse transcriptase (Invitrogen) with DNAse I (Ambion) treatment for 30 min. The one-tenth of the produced cDNA was amplified by PCR using Taq DNA polymerase (Invitrogen) and two reporter sequence-specific primers. The PCR products were fluorescently labeled by primer extension with 6-arboxyfluorescein (6-FAM) 5'-labeled reporter sequence-specific primer (2 min at 95 C, 20 s at 68 C and 10 min at 72 C) and these products were digested with 5U of HpaI (New England Biolabs) for 2h at 37 C. The fragments were purified using Qiaquick PCR columns (Qiagen), analyzed on an ABI 3130xL genetic analyzer (Applied Biosystems) with peak positions identified by using a set of X-rhodamine (ROX)-labeled MapMarker1000 molecular weight standards (BioVentures). The raw capillary electrophoresis data was processed using Attagraph software (Attagene).
Regarding `O=C(Cl)OCCOC(=O)Cl`, the molecule was called inactive.
Then `O=C(Cl)Oc1ccccc1`, with “inactive”; and `O=C1C2CC=CCC2C(=O)N1SC(Cl)(Cl)C(Cl)Cl` (configuration not stated), with “inactive”.
Then `CCCCC(CC)CO[P+](=O)OCC(CC)CCCC` (configuration not stated), with “inactive”; and `Cc1cc([N+](=O)[O-])cc([N+](=O)[O-])c1O`, with “inactive”.
For `CCCCO[P+](=O)OCCCC`, the molecule was called inactive.
Then `O=[p+]1oc2ccccc2c2ccccc21` (configuration not stated), with “inactive”; and `CC(C)OP(=S)(OC(C)C)SCCNS(=O)(=O)c1ccccc1`, with “inactive”.
Then `O=[P+](Oc1ccccc1)Oc1ccccc1`, with “inactive”.
For `N#CSc1ccc([N+](=O)[O-])cc1[N+](=O)[O-]` the value was “inactive”.
With `O=[As]c1ccccc1` (configuration not stated), the result was inactive.
On to `CCCCOP(OCCCC)OCCCC`, for which the molecule was classed as inactive.
